One substance from US20260098054A1, “COMPOSITIONS AND METHODS FOR CONSTRUCTING CONJUGATES” (priority 2022, published 2026) can be followed below.

One data set deals with U87-MG cells. The data set is described as follows: In vitro cytotoxicity assay (CCK-8) in U87-MG cells. The note with it: U87-MG (high αvβ3 integrin), 48 h incubation, fold of free DM1 activity. How it is done: (§1) Cells were plated in 96-well microplates at a density of 5×10^4 cells/well for 24 h for attachment, 90 μl of DMEM with 10% FBS and 100 U/mL P/Swas added to each well. PDCs 1-6 were first dissolved in DMSO respectively, at a concentration of 10 mM, followed by serial dilution in culture medium to achieve different concentrations as specified. For U87-MG cells, the concentration of compounds administered ranged from 1.37 to 27000 nM. While for HEK-293T cells, the concentration of compounds administered ranged from 0.03 to 1000 nM. The cells treated with the compounds were then incubated for 48 h. 10 μl of CCK-8 solution was then added to each well and incubated for 30 min. Absorbance was acquired at 450 nm using a spectrophotometer (Synergy HTX, Biotek). Three experiments were performed separately in triplicates and the data was processed using the GraphPad Prism (GraphPad Software, La Jolla, CA).
(§2) Next, the biological activities of these conjugates were evaluated.
Then, the in vitro antitumor efficacy of PDCs 1-6 was examined by CCK-8 assay (FIG. 5B). The IC50 of free DM1 and its conjugates were compared internally within the same cell line, to determine the potency of the six compounds.

For another data set, the system named is HEK-293T cells. Put plainly: In vitro cytotoxicity assay (CCK-8) in HEK-293T cells. To be noted: CCK-8, PDCs 1-6. How it is done: as §1, §2
The peptide-drug conjugates were tested on the negative control cell line.

A short description of data set [1]: Stability test of conjugates (checked by LCMS). It is filed as physicochemical. To be noted: aqueous solvents under air atmosphere over a wide pH range. How it is done: FIGS. 5A-5C are line graphs of stability test and biological evaluations of PDC 1-6. […] The compound was checked by LCMS after 24 h and 48 h.

On to “OPA-c [RGDfK]-DM1-DMAC conjugate [PDC-2]”, for which the “cytotoxicity compared to free DM1 (IC50 compared within the same cell line)” value in the data set on U87-MG cells was 0.09 fold. The “cytotoxicity in words (ranking among the six compounds)” value in the data set on HEK-293T cells was “least cytotoxicity”. The “stability in comparison to PDC-1” value in data set [1] is recorded as “enhanced stability”.
